Our source for the GI50 and Kd values is patent US20250388605A1, “HETEROBIFUNCTIONAL COMPOUNDS AND METHODS OF TREATING DISEASE” (Halda Therapeutics OpCo, Inc., priority 2022, published 2025).

Structures are written as SMILES.

One test has as its system VCaP cells. The test is described as follows: Cellular growth inhibition assay for VCaP cells, CellTiter-Glo. As to conditions: 72 hours. As for the experimental part:
VCaP cells were purchased from American Type Cell Culture (ATCC Cat #CRL2876) and then seeded on poly-D-lysine coated, black clear-bottom 384-well plates at 5000/well in 25 μL Dulbecco's Modified Eagle Medium (DMEM) supplemented with 10% w/w Fetal bovine serum (FBS) and 1% w/w Pen-Strep. Pen-Strep is a commercially available mixture of penicillin G and streptomycin, which is used in mammalian cell culture media to prevent bacterial contamination. Dulbecco's Modified Eagle Medium (DMEM) supplemented with 10% w/w fetal bovine serum (FBS) and 1% w/w Pen-Strep is herein referred to as Treatment Medium. Following seeding of cells in the plates, the plates were spun at 300×g for 30 seconds, then equilibrated to room temperature for 30 minutes, and then deposited in a humidified tissue culture incubator maintained at 37° C. with 5% CO2. […]
(§1) At the end of the treatment duration, cell viability was quantified with CellTiter-Glo 2.0 reagent (Promega Cat #G9243). […] Following incubation, the plates were spun at 3000×g for 30 seconds, then sealed with an optical adhesive cover, and luminescence readings were measured with an EnVision Plate Reader.
(§2) Data was normalized using zero luminescence for baseline. […]
A general note: In ATP-based viability assays light output follows the ATP content of the culture.

The target of a further test is BRD4-BD2 (Homo sapiens, UniProt O60885). The test is described as follows: Binding affinity to BRD4-BD2 (bromoKdELECT assay). As to conditions: 11-point 3-fold dilution series. As for the experimental part:
(§3) Compounds were tested using a bromoKdELECT assay. T7 phage strains displaying bromodomains were grown in parallel in 24-well blocks in an E. coli host derived from the BL21 strain. E. coli were grown to log-phase and infected with T7 phage from a frozen stock (multiplicity of infection=0.4) and incubated with shaking at 32° C. until lysis (90-150 minutes). The lysates were centrifuged (5,000×g) and filtered ([…]) to remove cell debris. Streptavidin-coated magnetic beads were treated with biotinylated small molecule or acetylated peptide ligands for 30 minutes at room temperature to generate affinity resins for bromodomain assays. The liganded beads were blocked with excess biotin and washed with blocking buffer (SeaBlock (Pierce), 1% BSA, 0.05% Tween 20, 1 mM DTT) to remove unbound ligand and to reduce nonspecific phage binding. Binding reactions were assembled by combining bromodomains, liganded affinity beads, and test compounds in 1× binding buffer (17% SeaBlock, 0.33×PBS, 0.04% Tween 20, 0.02% BSA, 0.004% Sodium azide, 7.4 mM DTT). Test compounds were prepared as 1000× stocks in 100% DMSO. Kds were determined using an 11-point 3-fold compound dilution series with one DMSO control point. All compounds for Kd measurements are distributed by acoustic transfer (non-contact dispensing) in 100% DMSO. […] The bromodomain concentration in the eluates was measured by qPCR.

The target of another test is BRD4-BD1 (Homo sapiens, UniProt O60885). The test is described as follows: Binding affinity to BRD4-BD1 (bromoKdELECT assay). The settings on record: 11-point 3-fold dilution series. As for the experimental part: as §3
Test [1] concerns T-Rex 293 cell line SC3 cells having increased expression of androgen receptor protein due to exposure to doxycycline. Kind of test: Cellular growth inhibition, T-Rex 293 SC3 cells with doxycycline (increased androgen receptor expression), CellTiter-Glo. As to conditions: T-Rex 293 SC3 cells with 10 ng/mL doxycycline (increased androgen receptor expression), 72 hours, CellTiter-Glo 2.0. As for the experimental part:
(§4) The following types of cells were prepared for this experiment: (i) a T-Rex 293 cell line having increased expression of androgen receptor protein due to exposure to doxycycline and (ii) a T-Rex 293 cell line lacking increased expression of androgen receptor protein. Ability of the test compounds to inhibit proliferation of the foregoing cell types was evaluated according to the procedures set forth below.
(§5) The doxycycline-inducible androgen receptor protein expressing cell line was established using the following protocol: T-Rex 293 cells were purchased from Invitrogen (Cat #R71007) and transfected using Lipofectamine 2000 with the wild-type androgen receptor protein sequence cloned into the pcDNA4/TO vector. Transfected cells were selected using 400 μg/mL Zeocin (Invitrogen Cat #R25001). […] Clones were analyzed for expression of androgen receptor protein in the presence and absence of 10 ng/mL doxycycline (Sigma Cat #D9891), and a single doxycycline-inducible clone (hereinafter “SC3”) was selected for use in downstream assays. […]
as §1, §2

Test [2] concerns T-Rex 293 cell line SC3 cells lacking increased expression of androgen receptor protein. Kind of test: Cellular growth inhibition, T-Rex 293 SC3 cells without doxycycline (no increased androgen receptor expression), CellTiter-Glo. The settings on record: T-Rex 293 SC3 cells not exposed to doxycycline (no increased androgen receptor expression), 72 hours. As for the experimental part: as §4, §5, §1, §2

Consider `CCS(=O)(=O)Cc1ccc(Oc2cccc(OCCN3CCN(c4ncc(C(=O)N[C@H]5C(C)(C)[C@H](Oc6ccc(C#N)c(Cl)c6)C5(C)C)cn4)CC3)c2F)c(-c2cn(C)c(=O)c3[nH]ccc23)c1`, for which the GI50 (in the test on VCaP cells; in test [1]; in test [2]) was under 500 nM in each case. Further, the Kd on BRD4-BD2 was under 50 nM; at BRD4-BD1, 500 to 2500 nM.

One may read the GI50 as the concentration at which growth is held to half of that of the control. High values mean less potent growth inhibition, low ones more potent growth inhibition. As usually defined, the Kd is a measure of binding affinity in units of concentration. Higher therefore signals a looser complex.
